Assay results taken from patent EP0632806B1 (priority 1992, dated 1993).
Only a part of the results on these compounds is given; other tests are left out.

The chains behind the UniProt entries cited, without tags or fusion partners.
UniProt P15389, whole entry: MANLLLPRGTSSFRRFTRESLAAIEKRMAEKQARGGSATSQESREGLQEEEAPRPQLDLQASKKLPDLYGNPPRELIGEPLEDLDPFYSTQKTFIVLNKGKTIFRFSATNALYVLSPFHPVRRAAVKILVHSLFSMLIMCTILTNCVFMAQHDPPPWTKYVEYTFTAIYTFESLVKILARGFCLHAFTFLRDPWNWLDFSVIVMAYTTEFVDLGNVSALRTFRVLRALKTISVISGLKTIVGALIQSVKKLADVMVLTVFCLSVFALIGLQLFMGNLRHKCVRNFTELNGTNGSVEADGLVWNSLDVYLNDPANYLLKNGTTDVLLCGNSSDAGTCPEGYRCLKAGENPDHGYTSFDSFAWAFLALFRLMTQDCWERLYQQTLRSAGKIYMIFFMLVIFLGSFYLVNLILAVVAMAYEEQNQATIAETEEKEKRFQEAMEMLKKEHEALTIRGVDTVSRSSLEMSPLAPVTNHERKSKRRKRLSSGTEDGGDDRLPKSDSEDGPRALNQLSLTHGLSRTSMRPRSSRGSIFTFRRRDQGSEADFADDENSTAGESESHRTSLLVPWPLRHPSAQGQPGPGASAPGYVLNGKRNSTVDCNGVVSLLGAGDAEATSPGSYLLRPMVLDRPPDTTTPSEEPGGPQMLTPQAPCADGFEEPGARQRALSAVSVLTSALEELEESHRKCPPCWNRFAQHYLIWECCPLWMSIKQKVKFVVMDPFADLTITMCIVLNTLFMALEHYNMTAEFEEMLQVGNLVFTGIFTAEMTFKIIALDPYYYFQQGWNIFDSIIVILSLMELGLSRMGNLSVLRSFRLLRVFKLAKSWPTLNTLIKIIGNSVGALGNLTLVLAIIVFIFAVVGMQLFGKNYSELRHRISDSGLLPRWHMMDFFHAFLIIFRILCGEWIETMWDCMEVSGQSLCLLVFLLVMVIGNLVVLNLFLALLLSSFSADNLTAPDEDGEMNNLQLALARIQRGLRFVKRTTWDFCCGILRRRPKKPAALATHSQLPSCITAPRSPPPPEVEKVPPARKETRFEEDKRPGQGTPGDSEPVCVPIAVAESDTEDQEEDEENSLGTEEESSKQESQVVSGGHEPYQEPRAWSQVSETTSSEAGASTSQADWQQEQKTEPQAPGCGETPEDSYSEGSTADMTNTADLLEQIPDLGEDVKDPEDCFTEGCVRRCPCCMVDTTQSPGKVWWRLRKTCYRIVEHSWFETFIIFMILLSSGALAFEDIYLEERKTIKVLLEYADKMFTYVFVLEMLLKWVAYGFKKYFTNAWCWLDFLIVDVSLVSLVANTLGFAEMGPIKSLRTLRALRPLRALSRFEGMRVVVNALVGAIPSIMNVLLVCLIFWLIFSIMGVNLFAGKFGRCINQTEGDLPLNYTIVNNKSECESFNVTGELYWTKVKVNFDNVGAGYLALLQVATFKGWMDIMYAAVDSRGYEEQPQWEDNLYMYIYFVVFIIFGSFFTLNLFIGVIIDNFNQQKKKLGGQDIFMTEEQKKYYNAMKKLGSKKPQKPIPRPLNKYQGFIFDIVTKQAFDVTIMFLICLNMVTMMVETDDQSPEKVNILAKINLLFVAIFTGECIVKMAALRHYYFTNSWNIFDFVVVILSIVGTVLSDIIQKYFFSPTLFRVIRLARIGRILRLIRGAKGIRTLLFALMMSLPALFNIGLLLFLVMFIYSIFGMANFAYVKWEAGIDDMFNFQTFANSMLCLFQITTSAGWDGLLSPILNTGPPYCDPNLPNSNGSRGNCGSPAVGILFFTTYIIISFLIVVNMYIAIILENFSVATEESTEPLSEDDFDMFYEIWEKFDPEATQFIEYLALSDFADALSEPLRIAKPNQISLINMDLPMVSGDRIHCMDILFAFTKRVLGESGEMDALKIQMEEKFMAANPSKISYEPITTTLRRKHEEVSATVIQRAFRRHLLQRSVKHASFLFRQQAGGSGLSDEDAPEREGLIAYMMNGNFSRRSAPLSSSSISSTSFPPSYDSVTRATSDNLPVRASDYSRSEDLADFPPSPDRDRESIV

Molecular target: cardiac sodium channel (Rattus norvegicus, UniProt P15389)
Test: Whole cell voltage clamp, sodium current
Conditions: read-out: EC20 Sodium current reduction; concentration required to produce a 20% change; single isolated adult rat cardiac cells; in the presence of naloxone
Experimental: A compound is also tested directly for effects on sodium and potassium currents in isolated rat myocytes. Isolated rat myocytes are obtained in the conventional manner used to obtain isolated myocytes from isolated hearts. They are used in conventional voltage clamp studies. In order to obtain adequate voltage clamps for estimation of a compound's effects on sodium and potassium currents, the whole-cell patch clamp technique is used. In this technique, a microelectrode is attached to a cell in such a manner that the cell's internal contents are in free communication with the electrode's content. Using the appropriate buffers and conventional voltage step protocols, both sodium and potassium currents can be identified. The effects of a compound are tested on these currents.
In the following examples, antiarrhythmic efficacy was assessed against coronary occlusion induced arrhythmias in the rat using standard methods. ECG and electrophysiological stimulating tests in rats and primates involved standard ECG leads and ventricular stimulation (implanted electrodes in the rats and inserted right ventricular electrodes in primates). Intracellular recordings were made from the epicardium of rat hearts in vivo. Whole cell voltage clamp studies were performed in single, isolated, adult rat heart cells. […]

## CN(C(=O)COc1ccc(Cl)c(Cl)c1)[C@@H]1CCCC[C@H]1N1CCCC1 (racemic)
  IC20: 4 µM
